Data from patent US20160081312A1, “MODEL OF ALZHEIMER'S DISEASE” (priority 2013, published 2016).

Columns and labels:
[1] = test system: APP; assay: APP level in rat brain cortex and hippocampus, western blotting; format: in vivo, wistar rat; details: omega-3 fatty acid (EPA 90 mg/Kg + DHA 60 mg/Kg) or α-tocopherol 100 mg/Kg, oral, with 10X-MM to P-60
Description: (§1) All animal-handling procedures were carried out in accordance with the current regulations of the Indian Institute of Toxicology Research Animal Ethics Committee, and with its prior approval for using the animals. The pregnant female wistar rats were housed in a 12-h […] cycle environment with ad libitum diet and water. The rats were divided into six groups (n=30 per group), gavage-treated with the metal mixture (Table 1). The metal mixture treatment was at two concentrations (1× and 10×; Groups 1-3, Table 1) for dose-dependent study. To identify the synergistic nature, the animals were treated in mixture as well as individually with the metals (Group 1-6 of Table 1). The heavy metals were As, Cd and Pb, fed in the form of NaAsO2, CdCl2 and Pb(C2H3O2)2, respectively, in Milli Q water. The NaAsO2, and CdCl2 readily dissolved in water, while Pb(C2H3O2)2 was dissolved by adding 0.043% acetic acid in water. […]
(§2) Tissues of the cerebral cortex and hippocampus from five to seven postnatal wistar rats were harvested, snap-frozen in liquid nitrogen, and stored at −80° C. until further investigation. […] The samples were detected by chemiluminescence with super signal west femto max substrate. Relative expression of each protein was determined by densitometric quantification of blots using VersaDoc Gel Imaging System (BioRad, Hercules, CF). […]

[2] = test system: Aβ-42; assay: Aβ-42 level in rat brain cortex and hippocampus, western blotting; format: in vivo, wistar rat; details: omega-3 fatty acid (EPA 90 mg/Kg + DHA 60 mg/Kg) or α-tocopherol 100 mg/Kg, oral, with 10X-MM to P-60
Description: as §1, §2

[3] = test system: Aβ; assay: Aβ level in cultured rat neurons and astrocytes; format: cell-based, wistar rat; details: metal mixture-induced, memantine 5 μM, donepezil 10 μM, docosahexaenoic acid 10 μM, α-tocopherol 10 μM
Description: (§3) The pregnant wistar rats were sacrificed by cervical dislocation and the embryos were removed on the 16th day of gestation. The embryonic brain tissues were mechanically dissociated into individual cells in dissection media containing Glucose (1M), sucrose (1 M), HEPES Buffer (1M) and Hank's salt (1×). The resulting cells were centrifuged (1,500 rpm, 5 min), resuspended in NEUROBASAL medium containing B-27 supplement (Invitrogen, Carlsbad, Calif.), L-glutamine (0.5 mM), penicillin (100 U/ml) and streptomycin (100 μg/ml) and plated into 60 mm dishes. The culture media was changed every 2 days. Greater than 90% of the cells in these cultures were neurons as assessed by cell morphology and immunostaining with rabbit monoclonal antibodies against MAP-2 (1:100).
(§4) The astrocytes from rat brain were isolated and cultured. […] The cells reached confluence at 7 days after subculture, and at this point, more than 95-97% of cells were GFAP-positive astrocytes, as determined by the immunofluorescence staining. […]
(§5) The astrocytes and neurons were treated, washed with PBS and suspended in 100 μl of CelLytic™ MT Cell Lysis Reagent protease inhibitor cocktail (a mixture of 4-(2-aminoethyl)benzenesulfonyl fluoride, pepstatinA, E-64, bestatin, leupeptin, and aprotinin)] and kept on ice for 20 min. […] The samples were detected by chemiluminescence with super signal west femto max substrate. […]

[4] = test system: APP; assay: APP level in cultured rat neurons and astrocytes; format: cell-based, wistar rat; details: metal mixture-induced, memantine 5 μM, donepezil 10 μM, docosahexaenoic acid 10 μM, α-tocopherol 10 μM
Description: as §3, §4, §5

Cc1c(C)c2c(c(C)c1O)CC[C@@](C)(CCC[C@H](C)CCC[C@H](C)CCCC(C)C)O2 [α-tocopherol]
effect on APP in the non-transgenic wistar rat model of AD [1]: suppress | effect on Aβ1-42 in the non-transgenic wistar rat model of AD [2]: suppress | Fold reduction in Aβ [3]: 1.9 ± 0.0192 fold | Fold reduction in APP [4]: 1.3 ± 0.0493 fold
